In PubChem BioAssay AID1259397 (Fisher Drug Discovery Resource Center, 2018):
This is a selection; strong and weak results do not stand in their true shares. Some structures show a salt or complex split into parts, the way the source records it. Calls of active or inactive are those of the source.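 How the source made its calls: active means inhibition of cGAS enzyme activity at or above 60%; inactive means the rest.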

Sequences of proteins named here, by UniProt entry; tags and fusion partners are left off.
UniProt Q8C6L5, whole entry: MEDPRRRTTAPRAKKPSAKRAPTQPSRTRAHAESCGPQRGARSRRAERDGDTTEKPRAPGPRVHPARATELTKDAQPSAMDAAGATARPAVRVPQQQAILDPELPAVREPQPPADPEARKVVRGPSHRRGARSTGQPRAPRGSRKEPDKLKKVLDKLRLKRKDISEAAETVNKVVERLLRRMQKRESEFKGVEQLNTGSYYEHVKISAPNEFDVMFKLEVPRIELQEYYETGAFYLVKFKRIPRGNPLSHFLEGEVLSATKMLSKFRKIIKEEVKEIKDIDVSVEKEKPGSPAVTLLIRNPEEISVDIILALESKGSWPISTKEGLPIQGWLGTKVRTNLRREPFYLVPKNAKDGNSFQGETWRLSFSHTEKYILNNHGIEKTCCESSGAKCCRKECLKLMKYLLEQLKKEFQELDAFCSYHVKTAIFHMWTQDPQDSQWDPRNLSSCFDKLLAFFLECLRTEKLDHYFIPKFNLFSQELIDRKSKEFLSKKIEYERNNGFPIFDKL

Molecular target: Cyclic GMP-AMP synthase (Mus musculus) (UniProt Q8C6L5)
Experiment: inhibitors of Mus musculus cyclic GMP-AMP synthase, initial high-throughput assay, cell-free, RapidFire MS (AID 1259397);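 further: enzyme stimulated by 45 bp dsDNA with ATP and GTP substrates; cGAMP share of summed cGAMP plus half ATP and half GTP signals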
Details: recombinant mouse cGAS, cGAMP by RapidFire MS; at 12.5 µM; stronger effect = higher value

SMILES	inhibition
Cc1ccc(NP(C)(=O)Oc2ccc(C(C)C)cc2)cc1C (stereo not drawn)	inactive: -4.18%
Cc1ccc(NP(C)(=O)Oc2ccc(C(C)(C)C)cc2)cc1 (stereo not drawn)	inactive: -5.71%
COc1ccc(OP(C)(=O)Nc2ccc(Cl)cc2)cc1 (stereo not drawn)	inactive: -4.29%
Nc1cc([N+](=O)[O-])cc([N+](=O)[O-])c1O	inactive: 35.6%
CP(=O)(Nc1ccc(Br)cc1)Oc1ccc(Cl)cc1 (stereo not drawn)	inactive: 4.15%
C/C1=C2N=C(/C=C3N=C(/C(C)=C4\[N-]C(C)(C5N=C1C(C)(CCC(=O)NCC(C)OP(=O)(O)OC1C(CO)OC(n6cnc7cc(C)c(C)cc76)C1O)C5CC(N)=O)C(C)(CC(N)=O)C4CCC(N)=O)C(C)(CC(N)=O)C\3CCC(N)=O)C(C)(C)C/2CCC(N)=O.[C-]#N.[Co+3] (stereo not drawn)	inactive: -4.03%
CN(C)CCS	inactive: 1.7%
CP(=O)(O)OC(c1cccc(Cl)c1)C(F)(F)F (stereo not drawn)	inactive: -5.64%
CP(=O)(Oc1ccccc1)OC(c1ccccc1)C(F)(F)F (stereo not drawn)	inactive: -1.2%
COC(=O)NC(c1ccccc1)P(=O)(Cl)Cl (stereo not drawn)	inactive: -10.1%
CP(=O)(Nc1ccccc1Br)Oc1ccccc1 (stereo not drawn)	inactive: -4.15%
CP(=O)(O)OC(c1ccccc1)C(F)(F)F (stereo not drawn)	inactive: -5.56%
COc1ccc(OP(C)(=O)Nc2cccc(F)c2)cc1 (stereo not drawn)	inactive: 0.779%
Cc1cc(C)cc(OP(C)(N)=O)c1 (stereo not drawn)	inactive: -1.41%
CCN(C1=NCCCS1)P(O)(=S)CC (stereo not drawn)	inactive: 3.24%
CP(=O)(O)OC(c1cccc(C(F)(F)F)c1)C(F)(F)F (stereo not drawn)	inactive: -4.38%
Cc1cccc(C)c1OP(C)(N)=O (stereo not drawn)	inactive: -4.37%
CC(C)(C)c1ccc(OP(C)(N)=O)cc1 (stereo not drawn)	inactive: -3.74%
CCOP(C)(=S)SCN(CC(=O)O)C(=O)OC (stereo not drawn)	inactive: -8.96%
CP(=O)(Nc1ccc(F)cc1)Oc1ccc(Cl)cc1 (stereo not drawn)	inactive: 1.92%
CP(=O)(Nc1ccc(Cl)cc1Cl)Oc1ccccc1 (stereo not drawn)	inactive: -6.98%
COc1cccc(C(OP(C)(=O)O)C(F)(F)F)c1 (stereo not drawn)	inactive: -16.4%
CC(C)(C)c1ccc(OP(C)(=O)O)cc1	inactive: 1.17%
OCCSCCO	inactive: -1.5%
CP(N)(=O)Oc1ccccc1F (stereo not drawn)	inactive: 3.52%
Cc1cc(C)cc(OP(C)(=O)Nc2cc(Cl)ccc2C)c1 (stereo not drawn)	inactive: 5.31%
O=[N+]([O-])C1([N+](=O)[O-])COCOC1	inactive: -13.5%
CN1CC(=O)N(C)P1(C)=S (stereo not drawn)	inactive: -5.58%
